One compound from ChEMBL document CHEMBL1126787, “Ethyl substitution at the 7 position extends the half-life of 10-hydroxycamptothecin in the presence of human serum albumin” (J Med Chem, 1993) can be followed below.

Common to all, as to type: functional
The species entered for test [1] is Homo sapiens. As to the kind of experiment: n value for the binding of carboxylate form to human serum albumin (n value = number of amino acid per binding site). The method, boiled down:
(§1)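 Fluorescence lifetime titration of lactone or carboxylate form (20 μM total drug) with varying HSA. Phase-shift lifetimes measured with 30 MHz modulated excitation, emission taken through a 500-nm long-pass filter. Free fraction computed as (τ − τB)/(τF − τB). K and n obtained by nonlinear least-squares fit to K = [Db]/[Df][aa]^n, where aa is amino acid residues.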

The species entered for test [2] is Homo sapiens. As to the kind of experiment: % of lactone form at equilibrium in PBS buffer at 37 C in the absence of human serum albumin. The method, boiled down:
(§2)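 Lactone-to-carboxylate hydrolysis of drug (1 μM total) in PBS (137 mM NaCl, 3 mM KCl, 8 mM Na2HPO4, 1 mM KH2PO4, pH 7.4) at 37 °C, with or without 20 mg/mL (290 μM) HSA. Monitored by HPLC over time. t1/2 and equilibrium % lactone fitted to decay profiles by nonlinear least squares. Average of at least three independent kinetic runs.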

The species entered for test [3] is Homo sapiens. As to the kind of experiment: n value for the binding of lactone form to human serum albumin (n value = number of amino acid per binding site). The method, boiled down:
as §1

The species entered for test [4] is Homo sapiens. The experiment in a line: % of lactone form at equilibrium in HSA buffer at 37 C in the presence of human serum albumin. The method, boiled down:
as §2

As to `CCc1c2c(nc3ccc(O)cc13)-c1cc3c(c(=O)n1C2)COC(=O)[C@]3(O)CC` [7-ETHYL-10-HYDROXYCAMPTOTHECIN], the Activity came out at 1.4 in the test filed under Homo sapiens [1], 13% in the test filed under Homo sapiens [2], 1.7 in the test listed under Homo sapiens [3] and 38% in the test listed under Homo sapiens [4].
